Assay results reported in patent US7989447B2, “1,5 and 3,6-substituted indole compounds having NOS inhibitory activity” (NeurAxon, Inc., priority 2006, dated 2011).
pIC50: −log10 of the molar value.

biological target: human neuronal constitutive NOS (nNOS) (Homo sapiens, UniProt P29475); assay: nNOS (Human) enzyme assay, radiometric conversion of [3H]L-arginine to [3H]L-citrulline; assay type: biochemical; conditions: human eNOS / human nNOS

Row | SMILES | Ratio e/n
1 | N=C(Nc1ccc2c(c1)cc(-c1ccc([N+](=O)[O-])cc1)n2CCN1CCCCC1)c1cccs1 [Compound 18, N-(2-(4-nitrophenyl)-1-(2-(piperidin-1-yl)ethyl)-1H-indol-5-yl)thiophene-2-carboximidamide] | 46.34
2 | CN1CCCC1CCn1c(-c2ccc([N+](=O)[O-])cc2)cc2cc(NC(=N)c3cccs3)ccc21 (stereo not shown) [Compound 21, N-(1-(2-(1-methylpyrrolidin-2-yl)ethyl)-2-(4-nitrophenyl)-1H-indol-5-yl)thiophene-2-carboximidamide] | 10.31

same assay, conditions: recombinant human enzyme, 37° C., 45 min

Row | SMILES | pIC50
3 | CN1CCCC(n2ccc3cc(NC(=N)c4ccco4)ccc32)CC1 (stereo not shown) [Compound 54, N-(1-(1-methylazepan-4-yl)-1H-indol-5-yl)furan-2-carboximidamide] | 6.37
4 | CN1CCCC1CCn1ccc2cc(NC(=N)c3cccs3)ccc21 (single isomer, unassigned) [(+)−57] | 7.22
5 | CN1CCCC(n2ccc3cc(NC(=N)c4ccco4)ccc32)CC1 (single isomer, unassigned) [(+)−55] | 6.40
6 | CN1CCCC1CCn1ccc2cc(NC(=N)c3cccs3)ccc21 (single isomer, unassigned) [(−)−57] | 7.70
7 | CN1CCCC(n2ccc3cc(NC(=N)c4ccco4)ccc32)CC1 (single isomer, unassigned) [(−)−55] | 6.25
